Our source for the Increase values is ChEMBL document CHEMBL1132720 (J Med Chem, 1999).

Sequences of proteins named here, by UniProt entry; tags and fusion partners are left off. A change or cut given only in a name is not applied to a line headed by its entry.
UniProt P49652: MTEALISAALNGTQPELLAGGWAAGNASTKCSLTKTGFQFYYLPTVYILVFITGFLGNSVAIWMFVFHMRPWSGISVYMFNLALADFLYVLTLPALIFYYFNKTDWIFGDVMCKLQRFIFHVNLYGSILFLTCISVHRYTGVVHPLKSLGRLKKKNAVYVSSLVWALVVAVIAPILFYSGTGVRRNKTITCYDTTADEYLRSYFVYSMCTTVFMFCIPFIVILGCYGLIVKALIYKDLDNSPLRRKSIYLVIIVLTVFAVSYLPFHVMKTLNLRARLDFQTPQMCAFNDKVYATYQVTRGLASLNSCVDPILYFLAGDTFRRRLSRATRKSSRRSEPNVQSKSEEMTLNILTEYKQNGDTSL

SMILES strings stand for the structures. Activity calls are given as the source filed them. The rule behind the calls is not given here.

For the test, the target named is P2Y purinoceptor 1 (Meleagris gallopavo) (UniProt P49652). As to the kind of experiment: In vitro agonist activity at P2Y1 receptor in turkey erythrocyte membranes; No effect at 100 uM. It counts as functional, cell membranes.

In the case of `CNc1ncnc2c1ncn2[C@H]1C[C@H](OP(=O)(O)O)[C@@H](COP(=O)(O)O)O1`, the Increase entry was “inactive”.
